Test results reported in patent publication US10065972B2, “Bicyclic or tricyclic heterocyclic compound” (MITSUBISHI TANABE PHARMA CORPORATION, priority 2014, dated 2018).

By UniProt entry, the sequences of proteins in these tests, tags left out. Residues count along the entry.
UniProt Q8N5Z0, 30-425: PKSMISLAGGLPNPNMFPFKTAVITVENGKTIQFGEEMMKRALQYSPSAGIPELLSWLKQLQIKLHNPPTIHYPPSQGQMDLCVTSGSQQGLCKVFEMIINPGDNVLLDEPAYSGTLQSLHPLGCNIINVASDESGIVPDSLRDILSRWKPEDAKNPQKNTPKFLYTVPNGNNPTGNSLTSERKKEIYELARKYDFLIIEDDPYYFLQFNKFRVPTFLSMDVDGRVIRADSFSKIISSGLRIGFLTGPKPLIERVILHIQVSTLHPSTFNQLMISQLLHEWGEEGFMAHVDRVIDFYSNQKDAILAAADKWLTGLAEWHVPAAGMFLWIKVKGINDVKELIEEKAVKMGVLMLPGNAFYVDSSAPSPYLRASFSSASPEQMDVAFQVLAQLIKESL

biological target: human recombinant KAT-II (Homo sapiens (Human), UniProt Q8N5Z0); assay: KAT-II inhibitory test; assay type: biochemical; settings: 3.0 μmol/L kynurenine, 37° C., 1 hr, pH 8.0; kynurenic acid quantified by HPLC
Protocol: The compounds described in the above-mentioned Examples were used for the KAT-II inhibitory test.
Preparation of Human Recombinant KAT-II
Human recombinant KAT-II was prepared as follows.
His tag and maltose binding protein tag were added to the N-terminal of a gene encoding human KAT-II (Genbank accession number: AF481738.1), and the obtained gene was incorporated into pET32 (Merck Nihon Millipore), which is an Escherichia coli expression vector. Human recombinant KAT-II produced by BL21(DE3) Escherichia coli (Merck Nihon Millipore, 69450) transformed using the plasmid was purified using an amylose resin column (New England Biolabs, #800-21 L).
The inhibitory action of the test compound on human recombinant KAT-II was determined by the following method.
To a reaction mixture (45 μL) containing 3.0 μmol/L kynurenine, 10 μmol/L pyridoxal phosphate, 2.0 ng/μL human recombinant KAT-II, and 150 mmol/L tris(hydroxymethyl)aminomethane-acetate buffer (pH 8.0) was added a 10% dimethyl sulfoxide solution (5 μL) of each test compound prepared, and the mixture was reacted at 37° C. for 1 hr. After the reaction, 50% trichloroacetic acid (5 μL) was added to terminate the reaction.
The resultant kynurenic acid was quantified as follows by high performance liquid chromatography. An enzyme reaction mixture was separated by an octadecylsilane reversed-phase column (SC-50DS, Eicom Corporation; mobile phase: 250 mmol/L zinc acetate, 50 mmol/L sodium acetate, and 5.0% acetonitrile (pH 6.2)) incubated at 30° C., and kynurenic acid was quantified using a fluorescence detector (RF-20Axs, Shimadzu Corporation) at excitation wavelength 354 nm, detection wavelength 460 nm. The analytical curve was drawn every time by an external standard method. Each test compound was tested by dual measurement at each concentration. The kynurenic acid level in the presence of a test compound at each concentration was converted into % relative to kynurenic acid resulting from a reaction with an enzyme alone as 100%, and the obtained values were fitted to S-curve to determine IC50.

Row | Structure (SMILES) | IC50 [nM]
1 | CC(C)(F)c1nc2sc(N3CCC[C@@H]3C(=O)NCc3ccccc3)nc2c(=O)[nH]1 [Example 482, (R)-N-benzyl-1-[5-(2-fluoropropan-2-yl)-7-oxo-6,7-dihydro[1,3]thiazolo[5,4-d]pyrimidin-2-yl]pyrrolidine-2-carboxamide] | 9.7
2 | [2H]C([2H])(NC(=O)[C@H]1CCCN1c1nc2c(=O)n(C)c(-c3ccccc3)nc2s1)c1ccccc1 [Example 265, (R)-N-[dideuterio(phenyl)methyl]-1-(6-methyl-7-oxo-5-phenyl-6,7-dihydro[1,3]thiazolo[5,4-d]pyrimidin-2-yl)pyrrolidine-2-carboxamide] | 5.4
3 | [2H]C([2H])(NC(=O)[C@H]1CCCN1c1nc2c(=O)n(C([2H])([2H])[2H])c(-c3ccccc3)nc2s1)c1ccccc1 [Example 560, N-[dideuterio(phenyl)methyl]-1-[7-oxo-5-phenyl-6-(trideuteriomethyl)-6,7-dihydro[1,3]thiazolo[5,4-d]pyrimidin-2-yl]pyrrolidine-2-carboxamide] | 11
4 | Cn1c(-c2ccccc2)nc2sc(N3CCC[C@@H]3C(=O)NCc3ccccc3)nc2c1=O [Example 178, (R)-N-benzyl-1-(6-methyl-7-oxo-5-phenyl-6,7-dihydro[1,3]thiazolo[5,4-d]pyrimidin-2-yl)pyrrolidine-2-carboxamide] | 12
5 | Cn1ccn2c(=O)c3nc(N4CCC[C@@H]4C(=O)NCc4ccccc4)sc3nc12 [Example 603, (R)-N-benzyl-1-(5-methyl-9-oxo-5,9-dihydroimidazo[1,2-a][1,3]thiazolo[5,4-d]pyrimidin-2-yl)pyrrolidine-2-carboxamide] | 4.9
